The results in this text go back to PubChem BioAssay (Tox21).

By UniProt entry, the sequences of proteins in these tests, tags left out.
UniProt P05177, whole entry, looked up: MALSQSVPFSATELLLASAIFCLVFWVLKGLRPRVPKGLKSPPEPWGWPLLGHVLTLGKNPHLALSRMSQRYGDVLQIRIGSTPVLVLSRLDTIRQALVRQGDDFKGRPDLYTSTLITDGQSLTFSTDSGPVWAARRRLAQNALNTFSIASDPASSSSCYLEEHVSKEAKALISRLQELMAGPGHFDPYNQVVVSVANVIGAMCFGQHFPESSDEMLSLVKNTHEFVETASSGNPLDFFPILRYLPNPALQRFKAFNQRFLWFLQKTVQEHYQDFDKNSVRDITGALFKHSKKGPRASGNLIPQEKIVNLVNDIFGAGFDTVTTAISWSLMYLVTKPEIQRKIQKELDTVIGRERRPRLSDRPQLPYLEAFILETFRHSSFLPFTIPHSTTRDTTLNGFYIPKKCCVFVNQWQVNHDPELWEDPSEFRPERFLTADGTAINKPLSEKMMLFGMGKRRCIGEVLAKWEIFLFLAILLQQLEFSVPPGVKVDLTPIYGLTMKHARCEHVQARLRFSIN

SMILES strings stand for the structures. “And” between values parts separate entries of the source, which are not always exact repeats. Equal values may be shown once. The entries are a selection whose mix differs from that of the whole data set. Results filed as inconclusive are left out. The source made the active and inactive calls. Calls follow the shape of the dose curve; as a rule, active = well fitted inhibition curve with a large enough effect in the repeat runs; inconclusive = weak or mixed curves; inactive = no such curve, though single readings can be large or run the other way.
Potency is read from the fitted curve at half-maximal effect.

This assay has as its target Cytochrome P450 1A2 (Homo sapiens) (UniProt P05177). Briefly: Cytochrome P450 Family 1 Subfamily A Member 2 (CYP1A2) small molecule antagonists: luciferase reporter qHTS assay (AID 1671199). Also: nearly all actives have a fitted effect of over 50% in size. Particulars: P450-Glo CYP1A2 enzyme, luciferin luminescence, 1 h. Summed up: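 Read-out is luminescence from luciferin detection reagent (20 min) proportional to CYP1A2 activity; compounds in DMSO preincubated 10 min with enzyme and proluciferin substrate, then NADPH regeneration solution, 1 h, room temperature.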
On the technique in general: Reporter assays use an easily measured gene product as a stand-in for the process of interest.
In the case of `CC(C)Cn1cnc2c(N)nc3ccccc3c21`, the Potency was active: 5.6 µM.

On to `COc1cc(NC(C)CCCN)c2ncccc2c1` (stereo not drawn), for which the Potency was active: 0.436 µM. On to `CN(C)c1ccc2nc3ccc(=[N+](C)C)cc-3sc2c1`, for which the Potency was active: 1.53 µM and active: 2.52 µM and active: 1.82 µM.
